Molecular target: Amine oxidase [flavin-containing] A (Homo sapiens, UniProt P21397)
Assay: biochemical

Sequences of proteins named here, by UniProt entry; tags and fusion partners are left off.
UniProt P21397, whole entry: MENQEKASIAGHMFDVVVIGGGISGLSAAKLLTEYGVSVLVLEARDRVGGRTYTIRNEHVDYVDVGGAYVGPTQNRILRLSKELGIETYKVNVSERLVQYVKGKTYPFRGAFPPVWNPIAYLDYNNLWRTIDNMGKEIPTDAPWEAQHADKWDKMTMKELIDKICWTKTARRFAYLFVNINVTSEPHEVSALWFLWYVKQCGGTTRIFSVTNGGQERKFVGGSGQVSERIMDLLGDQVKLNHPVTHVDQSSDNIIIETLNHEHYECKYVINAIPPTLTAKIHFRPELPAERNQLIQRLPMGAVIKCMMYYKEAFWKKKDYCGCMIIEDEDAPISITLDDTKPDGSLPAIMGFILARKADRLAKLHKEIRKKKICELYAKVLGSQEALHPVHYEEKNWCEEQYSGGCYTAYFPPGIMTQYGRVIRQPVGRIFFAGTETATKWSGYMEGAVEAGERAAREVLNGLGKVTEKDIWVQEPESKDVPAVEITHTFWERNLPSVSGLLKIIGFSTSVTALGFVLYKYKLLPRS

## Cn1ncc2cc(C(=O)Nc3ccc(Cl)c(Cl)c3)ccc21
  IC50: 0.389 nM

Source: ChEMBL document CHEMBL3994625, “Crystal structures, binding interactions, and ADME evaluation of brain penetrant N-substituted indazole-5-carboxamides as subnanomolar, selective monoamine oxidase B and dual MAO-A/B inhibitors” (Eur J Med Chem, 2017)
